Yeast mating assay B: variants of the scFv Ab-14

Target peptide (SARS-CoV-2 spike, HR2 region): PDVDLGDISGINAS

Each scFv is VH, three GGGGS repeats, VL, as in the parent Ab-14, and differs from it in the CDRs of the light chain only.
VH: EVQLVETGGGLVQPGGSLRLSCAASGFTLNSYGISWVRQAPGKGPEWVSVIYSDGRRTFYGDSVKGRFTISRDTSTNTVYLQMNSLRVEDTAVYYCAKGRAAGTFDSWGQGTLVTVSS
VL: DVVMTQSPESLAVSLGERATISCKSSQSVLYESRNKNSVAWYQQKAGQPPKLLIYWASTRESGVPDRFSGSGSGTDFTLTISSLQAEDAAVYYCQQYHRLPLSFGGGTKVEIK

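This is the validation round: designs drawn from the data on random variants, tested in the same kind of assay. Several design methods are mixed in this list. The scFvs were displayed on barcoded MATa yeast, the peptide on MATalpha yeast. Binding brings cells together so that they mate, and sequencing counts the barcode pairs among the diploids. A regression on co-assayed BCL2-family reference pairs converts the normalised counts of each replicate to an apparent Kd. Mating was done six times.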

The parent's light chain CDRs are KSSQSVLYESRNKNSVA, WASTRES, QQYHRLPLS; each variant's own CDRs replace them letter for letter. Scale: log10 of Kd in nM, estimated from mating counts; low values are strong binders. Averages over replicates are reported, and they cover detected replicates only. A pair that was not seen in any replicate is written "no signal"; this usually means weak binding, but a binder can also be missed. Order: sorted from the lowest average up, undetected variants last. Nonspecific signal, from three strains lacking the peptide, appeared in 4% of pairings of all light chain designs, centred on 2.64 (5% of these signals below 1.59); values are not corrected for it. A sequence measured in both rounds can read differently, since the two assays cover different ranges. Of ten entries with the parent sequence, four were seen in most replicates (averages 0.34 to 2.37), three in one and three in none, so single entries are noisy. The authors' rule: three or more of the six replicates give a measured affinity, fewer mean a poor binder.

| CDR-L1 | CDR-L2 | CDR-L3 | mean, log10 nM | seen in |
|---|---|---|---|---|
| KLSQSSLYESRNKNSVA | NASTRES | QQYHRLPLS | -0.51 | 6 of 6 |
| KVSQSNLYESRNKNSVA | NASTREV | QQYHRLPLS | -0.39 | 6 of 6 |
| KLSYSVLYESRNKNSVA | GASTRES | QQYHRLPLS | -0.38 | 6 of 6 |
| KISQSWLYESRNKNSVA | GASAREV | QQYHRLPLS | -0.29 | 6 of 6 |
| KLQQSQGYESRNKNSVA | NASQRES | QQYHRLPLS | -0.27 | 6 of 6 |
| KMSQSVLYESKNKNNVA | WASTRES | QQYHRLPLS | -0.25 | 6 of 6 |
| KLQQSVWYESRNKNSVA | EASTRES | QQYHRLPLS | -0.19 | 6 of 6 |
| KSSISYLSESRNKNSVA | EASTRES | QQYHRLPLS | -0.15 | 6 of 6 |
| KMSQSVLMGGRNDNSVA | EASTRCS | QQYHRLPLS | -0.13 | 6 of 6 |
| KCEQSWGYESRVKNNVA | NASQRES | QQYHRLPLS | -0.04 | 6 of 6 |
| KVDQWEQYGSRNKNSVA | SASQRCS | QQYHRLPLS | -0.01 | 6 of 6 |
| KLSQSVLYEQRNKNSVA | NASTRCS | QQYHRLPLS | -0.01 | 6 of 6 |
| KLSQSHLYESRMKNSVA | NASQRES | QQYHRLPLS | 0.04 | 6 of 6 |
| KSGQGVLYESRQKNSVA | GASTRES | QQYHRLPLS | 0.05 | 6 of 6 |
| KISCSEYYGDRNKMSVA | DASQRES | QQYHRLPLS | 0.06 | 6 of 6 |
| KLSQSELYESRNKNSVA | GASQRES | QQYHRLPLS | 0.10 | 6 of 6 |
| KFSQSVLYESRTYNSVA | NASTREY | QQYHRLPLS | 0.11 | 6 of 6 |
| SMQVYTENFMERGQNIA | DVSAKTV | QQYHRLPLA | 0.14 | 6 of 6 |
| KVSQSELYESRNKWSVA | NASTRES | QQYHRLPLS | 0.15 | 6 of 6 |
| KSSQSVAGESRNANSVA | DASTRES | QQYHRLPLS | 0.20 | 6 of 6 |
| TLTQSVGMESHSKNSVA | DLSTRGS | QQYHRLPLS | 0.29 | 6 of 6 |
| KVSQNVLMMSRNKNSVA | DNSTSGS | QQYHRLPLS | 0.34 | 6 of 6 |
| KIGATLNQLMTKKNNVA | DLVMREN | QQYHRLPLS | 0.38 | 6 of 6 |
| KISMHYNFASTNKNSIA | EMTTRES | QHYHRLPLS | 0.43 | 6 of 6 |
| NISYHQGEPTNSVNNVA | QTSLRAH | QQYHHLPLC | 0.47 | 6 of 6 |
| KLSQSDLYESRQKNSVA | NASTRES | QQYHRLPLS | 0.47 | 6 of 6 |
| KLSQSVLYESRNKNSVA | WDSQRES | QQYQRLPLS | 0.50 | 6 of 6 |
| HISQSFMQESVWRNNIA | HQSTREQ | QQYDRLPFS | 0.54 | 6 of 6 |

Second part, the sequence after the result:

| mean, log10 nM | seen in | CDR-L1 | CDR-L2 | CDR-L3 |
|---|---|---|---|---|
| 0.56 | 6 of 6 | HSSPSVMYESRNKNSVA | EASTRES | QQYHRLPLS |
| 0.59 | 6 of 6 | KQSQSVLYESRNKNSVA | DASTRES | QQYHRLPLH |
| 0.64 | 6 of 6 | KLRISTAYLSENKNSVA | ELSTRGS | QQYFRLPLS |
| 0.67 | 6 of 6 | IVSQLMLWGMHAKNSIA | EATMRTN | QQYDRLPLF |
| 0.80 | 6 of 6 | QVQYHPGESLRHASSIA | DVNIKEM | QQYSRLPLS |
| 0.86 | 6 of 6 | KISMLSENQLKNKNSVA | ELVTRLN | QQYNRLPLS |
| 0.87 | 5 of 6 | KSSQSWIGESRNKNSVA | HGSTRES | QQYHRLPLS |
| 0.91 | 6 of 6 | TISQMTSLFSMSINNVA | EVSTREE | QQYDRLPLA |
| 0.93 | 6 of 6 | KISMMYRFEQTSSNNIA | EMTTRAE | QSYHRLPLS |
| 0.95 | 6 of 6 | HIQEVDHQVENKYGNVA | DASEYAA | QQYFQLPIS |
| 0.96 | 6 of 6 | QLLTGVTENAKNGKAIA | EHELKAH | QQYFRLPFS |
| 1.09 | 6 of 6 | KFSQSVLYESRAKNGVA | EASTRES | QQYHRLPLS |
| 1.20 | 5 of 6 | HMSMLTLQGMRHRNSVA | QMTTRVN | QQYDRLPLS |
| 1.33 | 6 of 6 | MIHESMGLVSHKQSSIA | DNSTRED | QQYDRLPLS |
| 1.64 | 6 of 6 | RFDQTEQMGIRDYNSVA | NGSTSAT | QHYSRLPIS |
| 1.72 | 6 of 6 | SIDSAVAYGLQNKKNIA | EEERADR | QQYAHLPLM |
| 1.74 | 1 of 6 | KMSQSVLAESDEKNSVA | WASTRES | QQYHRLPLS |
| 1.78 | 6 of 6 | MISQLWNMGTFAINSVA | QATIRNS | QQYDRLPLA |
| 1.87 | 6 of 6 | TISQLMNMGQFAINSVA | QASIRNS | QQYDRLPLI |
| 1.96 | 6 of 6 | TISQTLMYGMRNRSNVA | EVSERLN | QQYDRLPLL |
| 1.96 | 3 of 6 | MVSQLMVWGMHARNSIA | EAQTRIN | QQYDRLPLV |
| 1.97 | 4 of 6 | KSSQSVLYESRNPNSVA | WASTREL | QQYHRLPLS |
| 2.11 | 2 of 6 | KSSQSWLYESRNNNSVA | WASTRES | QQYHRLPLS |
| 2.14 | 4 of 6 | MISQLFNMGSFAINSVA | QASQRCE | QQYDRLPLI |
| 2.28 | 6 of 6 | KSSQSVLYESRNANSVA | SASTRES | QQYHRFPLL |
| 2.30 | 6 of 6 | SLSMSMAFLSRNKNSVA | ENSTRES | QQYHRLPLI |
| 2.30 | 6 of 6 | KLIQSVAMSSRNKSSIA | DNSTRES | QQYHRLPLS |
| 2.45 | 5 of 6 | KSSQSCLYMSRNTNSVA | WASTRSS | QQYHRLPLS |
| no signal | 0 of 6 | KSSQSVLYESRNKESVA | WASTRES | QQYHRLPLS |

The last 4 entries again:

| CDR-L1 | CDR-L2 | CDR-L3 | mean, log10 nM | seen in |
|---|---|---|---|---|
| SLSMSMAFLSRNKNSVA | ENSTRES | QQYHRLPLI | 2.30 | 6 of 6 |
| KLIQSVAMSSRNKSSIA | DNSTRES | QQYHRLPLS | 2.30 | 6 of 6 |
| KSSQSCLYMSRNTNSVA | WASTRSS | QQYHRLPLS | 2.45 | 5 of 6 |
| KSSQSVLYESRNKESVA | WASTRES | QQYHRLPLS | no signal | 0 of 6 |

Source: Li et al. 2023 (doi:10.1038/s41467-023-39022-2), MIT Lincoln Laboratory and A-Alpha Bio; data file from the FLAb repository.